Experimental data: ChEMBL document CHEMBL1149301, “Benzoyl ring halogenated classical 2-amino-6-methyl-3,4-dihydro-4-oxo-5-substituted thiobenzoyl-7H-pyrrolo[2,3-d]pyrimidine antifolates as inhibitors of thymidylate synthase and as antitumor agents” (J Med Chem, 2004)

By UniProt entry, the sequences of proteins in these tests, tags left out.
UniProt C3SWJ7, whole entry: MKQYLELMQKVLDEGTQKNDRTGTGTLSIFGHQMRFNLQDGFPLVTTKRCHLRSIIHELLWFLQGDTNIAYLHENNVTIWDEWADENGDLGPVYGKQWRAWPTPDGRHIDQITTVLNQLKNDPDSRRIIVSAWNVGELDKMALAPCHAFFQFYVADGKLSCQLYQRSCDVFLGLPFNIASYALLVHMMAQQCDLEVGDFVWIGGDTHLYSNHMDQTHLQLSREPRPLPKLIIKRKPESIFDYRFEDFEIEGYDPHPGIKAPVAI

Molecular target: Thymidylate synthase (Escherichia coli, UniProt C3SWJ7)
Experiment: Inhibition of Escherichia coli thymidylate synthase

Structure (SMILES): Cc1nc2ccc(CN(C)c3ccc(C(=O)N[C@@H](CCC(=O)O)C(=O)O)s3)cc2c(=O)[nH]1 [RALTITREXED]
- IC50: 5.7 µM
